Data published in PMC2033546, “Effects of somatostatin analogue RC-160 and bombesin/gastrin-releasing peptide antagonists on the growth of human small-cell and non-small-cell lung carcinomas in nude mice” (British Journal of Cancer, 1994).

Assays:
[1] = Body weight of tumour-bearing nude mice; conditions: Table I, Experiment II (non-SCLC H157), end of experiment; control 26.5 ? 1.0; means ? s.d.
[2] = Serum growth hormone (GH) radioimmunoassay in nude mice; assay type: in vivo; conditions: both experiments, after chronic treatment, vs controls
[3] = system: IGF-I receptors in membranes of non-SCLC H157 tumours; experiment: IGF-I receptor binding on H157 tumour membranes after in vivo treatment; set-up: species or system human
[4] = Serum gastrin radioimmunoassay in nude mice; assay type: in vivo; conditions: both experiments, after chronic treatment, vs controls
[5] = system: EGF receptors in membranes of non-SCLC H157 tumours; experiment: EGF receptor binding on H157 tumour membranes after in vivo treatment; set-up: species or system human
[6] = system: non-SCLC cell line NCI-H157; experiment: Growth of H157 non-SCLC xenografts in nude mice; assay type: in vivo, human (xenograft in male athymic nude mice); conditions: RC-160 100 µg/day, RC-3095 20 µg/day

## [Ac-D-Nal(2)1, D-Phe(4CI)Y, i>Pal(3)3, ID-Cit', D-Alal?lLH-RH [SB-75]
[1]
  Body weight: 27.0 2.0 g
[2]
  Serum GH levels (in words): no changes in levels of GH and gastrin
[3]; Table IV, Experiment II (non-SCLC H157), tumour membranes after in vivo treatment, control 257, done once
  IGF-I maximal binding capacity (Bmax): 160 fmol mg' protein
[3]; after in vivo treatment
  IGF-I binding sites on H157 tumours (in words): No changes in IGF-I binding capacity and affinity
[4]
  Serum gastrin levels (in words): no changes in levels of GH and gastrin
[5]; Table IV, Experiment II (non-SCLC H157), tumour membranes after in vivo treatment, control 249, done once
  EGF maximal binding capacity (Bmax): 192 fmol mg' protein
[5]; after in vivo treatment
  EGF binding capacity on H157 tumours (in words): not with bombesin/ GRP antagonist RC-3095 or LH-RH antagonist SB-75
[6]; 4 weeks s.c., SB-75 100 µg/day per animal, vs control
  Growth of H157 non-SCLC tumours (in words): No significant reduction in final tumour volume, tumour weight and tumour growth
[6]; Table I, Experiment II (non-SCLC H157), 4 weeks s.c. peritumoral, SB-75 100 µg/day per animal, control 1580.3 ? 455.7, means ? s.d., ten animals per group, *P<0.05 vs control
  Tumour volume, final: 1301.0 709.8 (mm)r
[6]; Table I, Experiment II (non-SCLC H157), 4 weeks s.c., SB-75 100 µg/day, control 1.9 ? 0.3, means ? s.d., *P<0.05 vs control
  Tumour weight: 1.4 0.7 g
[6]; Table I, Experiment II (non-SCLC H157), 4 weeks s.c., SB-75 100 µg/day, control 3.88
  Tumour doubling time: 4.0 days
